target: native rat GABAB receptors (Rattus norvegicus, UniProt O88871+Q9Z0U4); test: [35S]GTPγS binding assay using cortical rat brain membranes; details: read-out: EC50 (ability to potentiate an EC50 of GABAB receptor agonist such as Baclofen), in the presence of EC50 of GABAB receptor agonist
From the text: The [^35S]GTPγS binding is a functional membrane-based assay used to study G-protein coupled receptor (GPCR) function. This method consists of using a binding assay to assess the initial step in receptor-mediated G protein activation in membranes prepared from cells expressing recombinant GPCR or using membranes from discrete areas of the rat brain. In brief, the assay measures the activation of G proteins by catalyzing the exchange of guanosine 5′-diphosphate (GDP) by guanosine 5′-triphosphate (GTP) at the α subunit. The GTP-bound G proteins dissociate into two subunits, Gα-GTP and Gβγ, which in turn regulate intracellular enzymes and ion channels. GTP is rapidly hydrolysed by the Gα-subunit (GTPases) and the G protein is deactivated and ready for a new GTP exchange cycle (Harper, Curr. Protoc. Pharmacol. 1998, 2.6, 1-10, John Wiley & Sons, Inc.). [^35S]GTPγS, a non-hydrolyzed analogue of GTP, is used for this purpose.
This method is widely used to study receptor activation of G protein in membranes prepared from rat brain tissue, including GABAB receptors (Urwyler et al, The Journal of Pharmacol. and Exp Ther. 2003, 307, 322-330; Olianas et al, Neurochemistry Intern. 2005, 46, 149-158). GABAB receptors are expressed in the rat brain cortex (Odagaki and Yamauchi, Basic Clin. Pharmacol. Toxicol. 2004, 94, 89-98) and are coupled to Gαo/i-protein, a preferential coupling for this method.
[^35S]GTPγS binding assay using cortical rat brain membranes preparation was used and adapted from Olianas et al (Neurochemistry Intern. 2005, 46, 149-158) for the detection of the positive allosteric modulator properties of the compounds of this invention on native rat GABAB receptors.
Cortices were dissected out from brains of 200-300 g Sprague-Dawley rats (Charles River Laboratories, L'Arbresle, France). Tissues were homogenized in 6 volumes (vol/wt) of 10% sucrose at 4° C. using a glass-teflon homogenizer. The homogenate was centrifuged at 1,250 g for 10 min, and the supernatant was centrifuged at 40,000 g for 20 min (4° C.). The pellet was resuspended in 25 ml water using a Polytron disrupter (Kinematica AG, Luzern, Switzerland) and centrifuged for 10 min at 3000 g. (4° C.). The supernatant was centrifuged at 40,000 g for 20 min (4° C.). The supernatant was discarded and the pellet washed twice by resuspension in 10 volumes 5 mM HEPES-KOH, pH 7.4. The homogenate was frozen and thawed twice and centrifuged at 40,000 g for 20 min. The final pellet was resuspended in 5 mM HEPES-KOH, pH 7.4 and stored at −80° C. before its use. Protein concentration was determined by the Bradford method (Bio-Rad protein assay, Reinach, Switzerland) with bovine serum albumin as standard.
Measurement of GABAB receptor positive allosteric modulator properties in rat cortical membranes was performed as follows: rat cortical membrane (1.5 μg) were incubated in 96-well microplates for 15 min at 30° C. in assay buffer (50 mM HEPES pH 7.4, 100 mM NaCl, 5 mM MgCl2, 10 μM GDP, 10 μg/ml saponin, 1 mM CaCl2) with increasing concentrations of positive allosteric modulator (from 1 nM to 60 μM) and a minimal concentration of GABA or Baclofen, a selective GABAB receptor agonist, that has been determined in previous experiments to correspond to the EC50, a concentration that gives 50% of the maximal response of the agonist, and is in accordance with published data (Olianas et al, Neurochemistry Intern. 2005, 46, 149-158). After addition of 0.1 nM [^35S]GTPγS to achieve a total reaction volume of 200 μl, microplates were shaken for 1 min and further incubated at 30° C. for 30 min. The incubation was stopped by rapid vacuum filtration over glass-fiber filter plates (Unifilter 96-well GF/C filter plates, Perkin-Elmer, Schwerzenbach, Switzerland) using a 96-well plate cell harvester (Filtermate, Perkin-Elmer, Downers Grove, USA). The Unifilter plate was washed three times with 300 μl of ice-cold wash buffer (20 mM HEPES pH 7.4, 100 mM NaCl). […]

By UniProt entry, the sequences of proteins in these tests, tags left out. Residues count along the entry.
UniProt O88871, 41-940 limits assumed: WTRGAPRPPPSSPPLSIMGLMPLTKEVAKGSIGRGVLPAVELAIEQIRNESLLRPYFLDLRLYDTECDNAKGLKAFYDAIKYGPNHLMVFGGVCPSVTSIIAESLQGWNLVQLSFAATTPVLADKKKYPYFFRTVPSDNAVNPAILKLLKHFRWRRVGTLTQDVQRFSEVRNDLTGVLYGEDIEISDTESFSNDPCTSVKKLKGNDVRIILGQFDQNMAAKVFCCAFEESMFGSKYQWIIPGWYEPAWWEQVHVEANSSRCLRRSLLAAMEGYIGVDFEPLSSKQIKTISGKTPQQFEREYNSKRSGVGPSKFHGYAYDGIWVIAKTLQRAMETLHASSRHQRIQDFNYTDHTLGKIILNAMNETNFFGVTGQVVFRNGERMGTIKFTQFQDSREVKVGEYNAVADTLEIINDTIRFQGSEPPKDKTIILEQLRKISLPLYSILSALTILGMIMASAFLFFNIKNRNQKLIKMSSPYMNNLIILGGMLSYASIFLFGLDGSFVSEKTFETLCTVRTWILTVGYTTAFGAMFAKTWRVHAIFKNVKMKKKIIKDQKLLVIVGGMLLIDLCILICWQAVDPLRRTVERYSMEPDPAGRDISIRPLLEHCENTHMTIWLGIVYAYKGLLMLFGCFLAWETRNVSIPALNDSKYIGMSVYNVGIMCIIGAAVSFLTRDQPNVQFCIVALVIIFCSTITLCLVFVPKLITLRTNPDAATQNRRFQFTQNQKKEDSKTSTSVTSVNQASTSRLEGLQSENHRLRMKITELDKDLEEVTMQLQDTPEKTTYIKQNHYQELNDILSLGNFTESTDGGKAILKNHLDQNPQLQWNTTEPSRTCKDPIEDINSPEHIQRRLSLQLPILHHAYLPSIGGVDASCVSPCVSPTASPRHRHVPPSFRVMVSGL
UniProt Q9Z0U4, 17-960 limits assumed: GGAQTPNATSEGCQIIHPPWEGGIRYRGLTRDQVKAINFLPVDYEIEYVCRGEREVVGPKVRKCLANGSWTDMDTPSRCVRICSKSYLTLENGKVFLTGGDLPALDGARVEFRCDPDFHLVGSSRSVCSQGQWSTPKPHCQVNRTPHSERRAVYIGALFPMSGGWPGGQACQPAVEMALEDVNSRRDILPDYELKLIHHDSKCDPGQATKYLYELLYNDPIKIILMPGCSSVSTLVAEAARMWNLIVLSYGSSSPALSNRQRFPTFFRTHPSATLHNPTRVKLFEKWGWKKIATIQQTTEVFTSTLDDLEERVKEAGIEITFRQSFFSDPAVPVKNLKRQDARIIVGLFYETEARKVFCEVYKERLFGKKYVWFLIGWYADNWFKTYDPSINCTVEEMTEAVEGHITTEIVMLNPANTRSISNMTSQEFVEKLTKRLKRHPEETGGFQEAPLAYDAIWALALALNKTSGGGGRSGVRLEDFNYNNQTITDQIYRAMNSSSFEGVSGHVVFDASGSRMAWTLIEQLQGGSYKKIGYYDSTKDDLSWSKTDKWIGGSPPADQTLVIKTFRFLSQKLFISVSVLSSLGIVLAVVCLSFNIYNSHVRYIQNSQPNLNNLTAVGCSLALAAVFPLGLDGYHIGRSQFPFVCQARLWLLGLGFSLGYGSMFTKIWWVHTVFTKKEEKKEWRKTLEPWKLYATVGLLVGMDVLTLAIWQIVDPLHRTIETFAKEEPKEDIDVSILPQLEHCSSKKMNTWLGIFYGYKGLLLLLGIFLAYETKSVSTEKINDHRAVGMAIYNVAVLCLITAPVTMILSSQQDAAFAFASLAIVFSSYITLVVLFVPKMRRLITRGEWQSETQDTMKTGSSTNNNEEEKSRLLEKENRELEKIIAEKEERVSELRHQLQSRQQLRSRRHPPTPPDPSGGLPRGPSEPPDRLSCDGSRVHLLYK

EC50 [µM] | Structure (SMILES)
0.5 to 1 | COc1nn(-c2ccc(F)c(NC(C)=O)c2)c(=O)n(Cc2ccc3c(c2)OCCO3)c1=O
< 0.1 | COc1nn(-c2ccc(F)cc2CC#N)c(=O)n(Cc2ccc(Cl)cc2)c1=O
> 1 | COc1nn(-c2ccc(Cl)c(NC(C)=O)c2)c(=O)n(Cc2ccc3c(c2)CCO3)c1=O
< 0.1 | COc1nn(-c2ccc(Cl)c(NC(C)=O)c2)c(=O)n(Cc2ccc(Cl)c(N(C)C)c2)c1=O
< 0.1 | COc1nn(-c2ccc(F)c(NC(C)=O)c2)c(=O)n(Cc2ccc(Cl)c(OC(C)C)c2)c1=O
< 0.1 | COc1nn(-c2cccc(NC(C)=O)c2)c(=O)n(Cc2ccc3cnoc3c2)c1=O
< 0.1 | COc1nn(-c2ccc(F)c(NC(C)=O)c2)c(=O)n(Cc2ccc(C(C)C)c(F)c2)c1=O
< 0.1 | COc1cc(Cn2c(=O)c(OC)nn(-c3cccc(NC(C)=O)c3)c2=O)ccc1C#N
0.1 to 0.5 | COc1nn(-c2ccc(Cl)c(NC(C)=O)c2)c(=O)n(Cc2ccc(F)cc2)c1=O
< 0.1 | COc1nn(-c2cccc(NC(C)=O)c2)c(=O)n(Cc2ccc(Cl)c(F)c2)c1=O
< 0.1 | COc1nn(-c2ccc(Cl)c(NC(C)=O)c2)c(=O)n(Cc2ccc3cnn(C)c3c2)c1=O
0.1 to 0.5 | COc1nn(-c2ccc(F)c(NC(C)=O)c2)c(=O)n(Cc2ccc3c(c2)CCO3)c1=O
< 0.1 | COc1nn(-c2ccc(Cl)c(NC(C)=O)c2)c(=O)n(Cc2ccc(Cl)c(F)c2)c1=O
> 1 | COc1cc(Cn2c(=O)c(OC)nn(-c3ccc(Cl)c(NC(C)=O)c3)c2=O)ccc1Cl
< 0.1 | COc1nn(-c2ccc(F)c(NC(C)=O)c2)c(=O)n(Cc2ccc(F)c(N3CCOCC3)c2)c1=O
< 0.1 | COc1nn(-c2ccc(F)c(NC(C)=O)c2)c(=O)n(Cc2ccc(N3CCOCC3)c(F)c2)c1=O
< 0.1 | COc1nn(-c2ccc(F)cc2)c(=O)n(Cc2ccc(Cl)c(Cl)c2)c1=O

EC50 [µM] | Structure (SMILES)
0.1 to 0.5 | COc1nn(-c2ccc(F)c(NC(C)=O)c2)c(=O)n(Cc2ccc(F)cc2)c1=O
0.1 to 0.5 | COc1nn(-c2cccc(NC(C)=O)c2)c(=O)n(CCc2ccccc2)c1=O
< 0.1 | COc1nn(-c2ccc(F)c(N(C)C(C)=O)c2)c(=O)n(Cc2ccc(C(F)(F)F)c(F)c2)c1=O
> 1 | COc1cc(Cn2c(=O)c(OC)nn(-c3ccc(F)c(NC(C)=O)c3)c2=O)ccc1Br
0.1 to 0.5 | COc1nn(-c2cccc(NC(C)=O)c2)c(=O)n(Cc2ccc3c(cnn3C)c2)c1=O
> 1 | COc1nn(-c2cccc(NC(C)=O)c2)c(=O)n(Cc2ccc(C(C)C)nc2)c1=O
< 0.1 | COc1nn(-c2cccc(NC(C)=O)c2)c(=O)n(Cc2ccc(F)c(C(F)(F)F)c2)c1=O
< 0.1 | COc1c(Cl)ccc(Cn2c(=O)c(OC)nn(-c3ccc(F)cc3)c2=O)c1F
< 0.1 | COc1cc(Cn2c(=O)c(OC)nn(-c3ccc(F)c(NC(C)=O)c3)c2=O)ccc1C(C)C
< 0.1 | COc1nn(-c2ccc(F)c(NC(C)=O)c2)c(=O)n(Cc2ccc(Cl)c(N(C)C)c2)c1=O
< 0.1 | COc1nn(-c2ccc(Cl)c(NC(C)=O)c2)c(=O)n(Cc2ccc(N(C)C)nc2)c1=O
< 0.1 | COc1nn(-c2ccc(F)c(NC(C)=O)c2)c(=O)n(Cc2ccc3c(c2)OCC3(C)C)c1=O
< 0.1 | COc1nn(-c2ccc(F)c(NC(C)=O)c2)c(=O)n(Cc2ccc(Cl)c(C(F)(F)F)c2)c1=O
0.5 to 1 | COc1nn(-c2ccc(F)cc2)c(=O)n(Cc2ccc(Cl)cc2)c1=O
> 1 | COc1cccc(Cn2c(=O)c(OC)nn(-c3ccc(F)c(NC(C)=O)c3)c2=O)c1
< 0.1 | COc1nn(-c2ccc(F)c(NC(C)=O)c2)c(=O)n(Cc2ccc(F)c(N(C)C)c2)c1=O
< 0.1 | COc1cccc(Cn2c(=O)c(OC)nn(-c3ccc(Cl)c(NC(C)=O)c3)c2=O)c1

Structure (SMILES) | EC50 [µM]
COc1nn(-c2ccc(F)cc2)c(=O)n(Cc2cnc(Cl)c(Cl)c2)c1=O | 0.1 to 0.5
COc1nn(-c2cccc(NC(C)=O)c2)c(=O)n(Cc2cnc(Cl)c(F)c2)c1=O | > 1
COc1nn(-c2cccc(NC(C)=O)c2)c(=O)n(Cc2ccc(Cl)nc2)c1=O | > 1
COc1nn(-c2ccc(F)c(NC(C)=O)c2)c(=O)n(Cc2cnc(Cl)c(Cl)c2)c1=O | < 0.1

— patent US8779129B2, “Triazinedione derivatives as GABAB receptor modulators” (Addex Pharma S.A., priority 2006, dated 2014)
